Results on 1 molecule are retold here after US9387211B2 (Cedars-Sinai Medical Center, priority 2010, dated 2016).

Test [1] deals with stable EGFR AtT20 transfectants (EGFR-AtT20). Put plainly: EGF induction of phospho-STAT3. Type of test: cell-based, murine. To be noted: gefitinib 0.01-10 μM.
Test [2] deals with EGFRWT tumors (EGFR-overexpressing AtT20 allografts). Details: species or system mice. The following applies: mouse, in vivo.
The test system of test [3] is control AtT20 cells, devoid of EGFR (V transfectants). Put plainly: In vivo control (V) AtT20 allografts in nude mice. The following applies: oral gefitinib 100 mg/kg/day; mice injected with control AtT20 cells.
Test [4] has as its system AtT20 cells stably expressing wild type EGFR (EGFRWT). Put plainly: TUNEL assay (apoptosis). The following applies: gefitinib 0.1-10 μM.
Test [5] has the same test system. Description: Western blotting of p53 and cleaved caspase3. To be noted: gefitinib 0.1-10 μM, 48 hours. On the technique in general: Immunoblotting shows a protein as a band on a membrane.
The test system is the same in test [6]. Put plainly: Western blotting, EGF-induced phosphorylation of EGFR, ERK and Akt. To be noted: gefitinib 0.01-10 μM 45 min prior to 5 nM EGF 10 min.
Test [7] relates to AtT20 cells stably expressing constitutively active EGFR (EGFRL858R). The description is as above. The following applies: gefitinib 0.01-10 μM 45 min prior to 5 nM EGF 10 min.
Test [8] relates to AtT20 cells stably expressing empty vector (V). The test is described as above. To be noted: gefitinib 0.01-10 μM 45 min prior to 5 nM EGF 10 min.

Take `COc1cc2ncnc(Nc3ccc(F)c(Cl)c3)c2cc1OCCCN1CCOCC1` [gefitinib]: in test [1], the “EGF induction of phospho-STAT3” value is listed as “dose dependently attenuated”. Besides, in test [2], the “attenuation of serum corticosterone levels” value is listed as approximately 35%, the fat accumulation result is on record as “attenuated”, the hyperglycemia result is recorded as “attenuated” and the plasma glucose levels came out at 351 ± 14 mg/dL. In addition, in test [2], the “serum ACTH levels” value is 378 ± 83 ng/mL and the weight gain entry is recorded as “attenuated”. In test [3], the body weight entry is recorded as “not altered”, the fat accumulation result is “not altered”, the glucose levels result is given as “not altered” and the serum corticosterone result is “not altered”. Besides, the “apoptosis (TUNEL staining)” value in test [4] is “induced apoptosis”. In addition, in test [5], the “cleaved caspase3 levels” value is on record as “elevated” and the p53 levels entry is “elevated”. For the same molecule, the “cleaved caspase3 levels” value in test [5] (listed as Gefitinib) is reported as “enhancing”. Further, the “EGF-induced phosphorylation of EGFR, ERK and Akt” value (shortened to “EGF-induced phosphorylation”) in test [6] is listed as “dose dependently suppressed”. Further, the “EGF-induced phosphorylation” value in test [7] is on record as “dose dependently suppressed”. For the same molecule, in test [8], the “EGF-induced phosphorylation” value is on record as “not in V transfectants”.
